## Yeast mating assay 2: variants of the scFv Ab-91

Target: peptide PDVDLGDISGINAS, taken from heptad repeat 2 (HR2) of SARS-CoV-2 spike.

Ab-91 is the parent antibody, in scFv form: VL, then a (GGGGS)3 linker, then VH. The light chain is unchanged in all variants.
VL: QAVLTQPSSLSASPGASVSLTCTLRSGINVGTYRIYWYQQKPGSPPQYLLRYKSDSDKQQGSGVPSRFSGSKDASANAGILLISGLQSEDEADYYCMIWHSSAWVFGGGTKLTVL
VH: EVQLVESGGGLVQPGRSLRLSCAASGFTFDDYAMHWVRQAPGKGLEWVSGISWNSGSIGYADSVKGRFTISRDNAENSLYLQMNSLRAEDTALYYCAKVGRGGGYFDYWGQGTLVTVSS

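Phage display of a naive human antibody library on the peptide gave the parent. Library AAYL51 holds single substitutions and randomly drawn double and triple substitutions in the CDRs. Affinity was read by AlphaSeq, a pooled yeast mating assay with surface-displayed partners. The frequency of each diploid, read from paired DNA barcodes, reflects how well the two displayed proteins bind. The ratio of observed to expected reads was calibrated, replicate by replicate, on BCL2-family standards whose Kd was known from biolayer interferometry. Mating was done three times.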

Substitutions are numbered in sequence along the VH above, starting at 1 (not Kabat).
The read-out is the apparent dissociation constant on a log10 scale (nM): the lower, the stronger.
A mean of the replicates is given; it leaves out those without a signal.
"ND" marks a missing value. The strain was present, yet no cells mated with the target were sequenced in that replicate, which points to weak or no binding.

| changes | log10 Kd, replicates | log10 Kd (nM), mean |
|---|---|---|
| D30Q/I51W/G56F | ND ND ND | ND |
| G59D/S63Y/V64E | ND ND ND | ND |
| G59H/G102D | 4.45 4.44 4.71 | 4.53 |
| N54D/I58W/A61Y | ND ND ND | ND |
| Y32K/A33C/G50V | 4.37 5.72 ND | 5.04 |
| G100L/G103S | 4.57 ND 4.80 | 4.69 |
| G26Y/Y32I/I58R | ND 4.26 4.54 | 4.40 |
| F27G/Y32G/I51V | 5.49 ND 4.70 | 5.10 |
| D30V/A33Q/I58R | 5.34 ND ND | 5.34 |
| M34K/G59F/V64K | ND ND ND | ND |
| G26W/A33H/G104F | ND ND ND | ND |
| Y32I/M34D/D62R | ND ND ND | ND |
| A33G/R101W/D107I | 4.14 ND ND | 4.14 |
| A33W/M34V/G100Y | 5.29 5.96 ND | 5.62 |
| T28R/R101C | 4.22 6.07 4.69 | 4.99 |
| W53A/Y60H | ND 4.42 3.86 | 4.14 |
| D31Y/Y60C/D107I | 4.66 3.62 2.92 | 3.73 |
| H35I/S55I/F106K | ND ND ND | ND |
| S57M/G102A/G104P | 3.33 ND ND | 3.33 |
| F27N/F29Y/G59R | 4.80 ND ND | 4.80 |
| H35E/S57R | 4.11 ND ND | 4.11 |
| N54P/K65Y/Y105E | ND ND ND | ND |
| Y32D/V99C/G100H | 4.99 4.13 ND | 4.56 |
| T28C/M34E/G59I | ND ND 5.61 | 5.61 |
| I51S/G100L/G103N | ND ND ND | ND |
| G26D/A33H/K65M | 4.90 5.96 4.81 | 5.22 |
| F29T/D62T | 2.08 2.23 1.79 | 2.03 |
| S55E/G59A | ND ND ND | ND |
| H35E/I51G/S57A | ND 5.99 ND | 5.99 |
| D31V/M34A/G102W | ND ND ND | ND |
| Y32M/H35K/D107H | ND ND ND | ND |
| F29K/G50A/V64K | 6.05 ND ND | 6.05 |

Repeated from above, the 5 best binders with a signal in all replicates:

| changes | log10 Kd, replicates | log10 Kd (nM), mean |
|---|---|---|
| F29T/D62T | 2.08 2.23 1.79 | 2.03 |
| D31Y/Y60C/D107I | 4.66 3.62 2.92 | 3.73 |
| G59H/G102D | 4.45 4.44 4.71 | 4.53 |
| T28R/R101C | 4.22 6.07 4.69 | 4.99 |
| G26D/A33H/K65M | 4.90 5.96 4.81 | 5.22 |

Background: pairings of library AAYL51 with three empty control strains gave a value in 21% of cases (median 4.54, 5th percentile 3.26). Values in that range, when seen in few replicates, are hard to tell from nonspecific mating.
In this assay the parent's reference entry averaged 1.86; its copy inside this library read 0.88.

Data: MIT Lincoln Laboratory AlphaSeq set, Engelhart et al. 2022, doi:10.1038/s41597-022-01779-4, as distributed in FLAb.